Reference: ChEMBL document CHEMBL2169790, “Selective inhibitors of aldo-keto reductases AKR1C1 and AKR1C3 discovered by virtual screening of a fragment library” (J Med Chem, 2012)

Molecular target: T1, Aldo-keto reductase family 1 member C1 (Homo sapiens, UniProt Q04828)
T1 sequence (Q04828 whole entry): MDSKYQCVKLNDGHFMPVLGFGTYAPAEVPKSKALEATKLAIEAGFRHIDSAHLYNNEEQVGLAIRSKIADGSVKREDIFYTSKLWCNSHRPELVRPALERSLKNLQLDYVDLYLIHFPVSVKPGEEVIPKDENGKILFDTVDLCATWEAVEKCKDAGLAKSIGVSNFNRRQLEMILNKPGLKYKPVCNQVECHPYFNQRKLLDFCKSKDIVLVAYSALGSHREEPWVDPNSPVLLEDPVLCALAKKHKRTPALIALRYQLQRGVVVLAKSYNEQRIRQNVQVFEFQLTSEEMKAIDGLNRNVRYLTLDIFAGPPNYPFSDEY
Experiment: Inhibition of human recombinant AKR1C1 assessed as 1-acenaphthenol oxidation by spectrophotometry

Row | SMILES | Ki
1 | NC(=O)c1ccccc1/N=C/c1cccc(O)c1O | 31 µM
2 | O=C(O)CNC=C1C(=O)CC(c2ccccc2)CC1=O (configuration not stated) | 56 µM
